Solubility data for one compound are collected here from ChEMBL document CHEMBL5154701, “Thieno[2,3-d]pyrimidine-2,4(1H,3H)-dione Derivative Inhibits d-Dopachrome Tautomerase Activity and Suppresses the Proliferation of Non-Small Cell Lung Cancer Cells” (J Med Chem, 2022).

The data set can be described thus: Solubility of the compound. In kind it is physicochemical.

A word on the solubility: it is the concentration that dissolves in the medium under given conditions. Read a high solubility as much dissolved substance.

≈ marks a conversion by molar mass, not a printed value.

Compound `Cc1c(-c2cccc(C(F)(F)F)c2)sc2[nH]c(=O)n(Cc3cccc4ccccc34)c(=O)c12` had a solubility of 3.3 µg/mL (≈ 7.07 µM).
